In general, EC50 refers to the concentration that produces a half-maximal response. One may read the Ki as a dissociation constant, usually derived from enzyme kinetics or from competition with a known ligand.

The chains behind the UniProt entries cited, without tags or fusion partners. Residues count along the entry.
UniProt O60894, 27-148 partner: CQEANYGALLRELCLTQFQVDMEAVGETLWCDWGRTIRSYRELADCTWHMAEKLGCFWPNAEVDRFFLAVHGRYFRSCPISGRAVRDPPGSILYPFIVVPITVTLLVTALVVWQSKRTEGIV

The target in one assay is T1, human CT receptors (Homo sapiens, UniProt P30988).
T1 construct: expressed in transfected cells
T1 sequence (P30988 25-474): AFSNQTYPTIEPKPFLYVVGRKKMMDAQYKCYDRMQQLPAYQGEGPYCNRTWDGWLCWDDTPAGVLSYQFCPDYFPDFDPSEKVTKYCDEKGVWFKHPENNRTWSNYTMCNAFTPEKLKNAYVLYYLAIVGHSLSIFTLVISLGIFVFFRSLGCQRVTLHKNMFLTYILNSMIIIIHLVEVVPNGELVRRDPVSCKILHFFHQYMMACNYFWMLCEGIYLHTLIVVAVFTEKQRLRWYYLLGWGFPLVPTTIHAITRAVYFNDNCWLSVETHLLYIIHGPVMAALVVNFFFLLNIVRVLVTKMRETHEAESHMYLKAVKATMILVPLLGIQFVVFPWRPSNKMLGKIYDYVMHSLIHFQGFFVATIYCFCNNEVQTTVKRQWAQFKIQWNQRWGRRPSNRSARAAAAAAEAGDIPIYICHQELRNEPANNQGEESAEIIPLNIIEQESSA
As to the kind of experiment: hCTR cAMP functional activity (HTRF). The class given is cell-based. The following applies: ±SE; UMUC3 cells overexpressing hCTR; relative EC50. The protocol: (§1) The AMY1 and CT receptors are GPCRs that are functionally coupled to Gas proteins. […] In vitro activity of peptides is measured by the amount of cAMP formed in human AMY1R and CTR overexpressed cells.
Human CT receptors are stably expressed in human urinary bladder cells (UM-UC-3, or UMUC3) under control of a pcDNA expression vector. […] After 20 days under selection, the mRNA levels from different clones are measured to confirm the expression of hCTR. To determine the function of over-expressed hCTR cells, the intracellular cAMP levels in response to salmon calcitonin are measured and compared to the expression of hCTR mRNA in each clone.
(§2) hAMY1R cells are cultured in MEM 1× (Corning) supplemented with 10% FBS, 1% antibiotic/antimycotic solution, 1 mM sodium pyruvate, 1×MEM NEAA, 1× GlutaMAX-I, 200 μg/mL hygromycin B, and 0.4 μg/mL puromycin. The hCTR cells are cultured in the same medium lacking the puromycin. Cultured cells are grown to 70% confluency and then incubated overnight with fresh medium.
Peptides diluted in DMSO are added (200 nL/well) in a 1:3 dilution series using ECHO acoustic liquid handler (Beckman). […]
(§3) The amount of intracellular cAMP is quantitated using HTRF technology (Homogeneous Time Resolved Fluorescence; Cisbio) as per vendor instructions. […]

Assay [1] deals with T2, human calcitonin receptor (hCTR) (Homo sapiens, UniProt P30988).
T2 construct: expressed in transfected cells; host or cells: membranes of UM-UC-3 (UMUC3) cells stably expressing human CTa
T2 sequence (P30988 25-474): T1 sequence (P30988 25-474)
Put plainly: hCTR competitive radioligand binding filter assay (125I-hCT). The following applies: ± SE; membranes of hCTR overexpressing cells. The protocol: (§4) The equilibrium dissociation constants (Kd) for the various receptor/radioligand interactions are determined from saturation binding analysis using the same reagents and buffers as described below for compound testing.
The receptor binding affinity (Ki) of rAMY, hCT, and hAMY agonist peptides on hCTR membranes is determined from a competitive radioligand binding filter assay.

The target in the next assay is T3, amylin receptor (Homo sapiens, UniProt P30988).
T3 sequence (P30988 25-474): T1 sequence (P30988 25-474)
The following applies: background statement; cited from earlier work.

In assay [2] the target is T4, hAMY1R (Homo sapiens, UniProt O60894+P30988).
T4 construct: expressed in transfected cells
Put plainly: hAMY1R cAMP functional activity (HTRF). The following applies: ±SE; UMUC3 cells overexpressing hAMY1R; relative EC50. The class given is cell-based. The method, then: as §1
Human AMY1R stable cell lines are generated by further transfecting human RAMP1-pCMVpuroPB (T14213) into UMUC3 hCTR clone cells. After selection, the mRNA levels human RAMP1 from different clones are measured to confirm the expression of human AMY1R.
as §2
Peptides diluted in DMSO are added (200 nL/well) in a 1:3 dilution series using ECHO acoustic liquid handler (Beckman). Cultured cells are detached with TrypLE Express (Gibco), resuspended in assay buffer, and 10 μL containing 1200 cells/well (hCTR) or 1500 cells/well (hAMY1R) are dispensed into each well. The plates are incubated at room temperature for 1 hour.
as §3
On the technique in general: Time-resolved FRET reads energy transfer from a long-lived donor to a nearby acceptor.

For assay [3], the target named is T4, hAMY1R. As to the kind of experiment: hAMY1R competitive radioligand binding filter assay (125I-rAMY). The following applies: ± SE; membranes of hAMY1R overexpressing cells. The method, then: as §4
The receptor binding affinity (Ki) of rAMY, hCT, and hAMY agonist peptides are determined from a competitive radioligand binding filter assay. The assay buffer consists of (in mM) 50 HEPES, pH 7.1, 5 MgCl2, 5 KCl, 0.2% (w/v) bacitracin, 0.003% (w/v) saponin and is used to dilute radioligand and membrane preparation. Binding reactions are carried out in 0.1 mL total reaction volume in a polystyrene 96 deep-well assay block. […] Test compounds and non-specific binding (NSB—defined as 300 nM rAMY) are added to aliquots of radioactivity buffer. […] The binding reaction is initiated by the addition of 0.05 mL of 200 μg/mL hAMY1R diluted in assay buffer to the radioactivity. Assay blocks are gently vortexed, sealed with parafilm, and incubated at RT for approximately 20 hours. […]

Turning to `CC[C@H](C)[C@H](NC(=O)[C@@H]1CCCN1C(=O)CNC(=O)[C@H](Cc1ccccc1)NC(=O)[C@H](CC(N)=O)NC(=O)[C@H](CC(N)=O)NC(=O)[C@H](CO)NC(=O)[C@H](CO)NC(=O)[C@H](Cc1c[nH]cn1)NC(=O)[C@@H](NC(=O)[C@H](CC(C)C)NC(=O)[C@H](Cc1ccccc1)NC(=O)[C@H](CC(N)=O)NC(=O)[C@H](C)NC(=O)[C@H](CC(C)C)NC(=O)[C@H](CCCNC(=N)N)NC(=O)[C@H](CCC(N)=O)NC(=O)[C@@H](NC(=O)[C@H](C)NC(=O)[C@@H]1CSSC[C@H](NC(=O)[C@@H](N)CCCCN)C(=O)N[C@@H](CC(N)=O)C(=O)N[C@@H]([C@@H](C)O)C(=O)N[C@@H](C)C(=O)N[C@@H]([C@@H](C)O)C(=O)N1)[C@@H](C)O)C(C)C)C(=O)N[C@@H](CC(C)C)C(=O)N1CCC[C@H]1C(=O)N1CCC[C@H]1C(=O)N[C@H](C(=O)N[C@@H](CC(N)=O)C(=O)N[C@H](C(=O)NCC(=O)N[C@@H](CO)C(=O)N[C@@H](CC(N)=O)C(=O)N[C@H](C(=O)N[C@@H](Cc1ccc(O)cc1)C(N)=O)[C@@H](C)O)C(C)C)[C@@H](C)O` [Compound XV, reference compound], the EC50 worked out at 2.4 ± 0.402 nM on human CT receptors and 0.043 ± 0.0044 nM at hAMY1R [2]. For the same compound, the results for the inhibition constant Ki (in assay [1]; on hAMY1R [3]) were 0.256 ± 0.087 nM and 0.0196 ± 0.002 nM, respectively. The “times more potent on the amylin receptor than on the calcitonin receptor” value at amylin receptor is on record as 14 times.

The values above are taken from patent publication US12551532B2, “Long-acting amylin receptor agonists and uses thereof” (Eli Lilly and Company, priority 2021, dated 2026).
